AlphaSeq binding of Ab-14 heavy chain variants to a spike HR2 peptide

Values reported by Engelhart et al. 2022, doi:10.1038/s41597-022-01779-4 (FLAb copy).

Target peptide (SARS-CoV-2 spike, HR2 region): PDVDLGDISGINAS

Each scFv is VH, three GGGGS repeats, VL, as in the parent Ab-14, and differs from it in the CDRs of the heavy chain only.
VH: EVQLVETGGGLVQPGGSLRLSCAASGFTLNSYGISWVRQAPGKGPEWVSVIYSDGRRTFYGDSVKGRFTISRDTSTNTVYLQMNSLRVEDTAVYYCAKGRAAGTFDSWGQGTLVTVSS
VL: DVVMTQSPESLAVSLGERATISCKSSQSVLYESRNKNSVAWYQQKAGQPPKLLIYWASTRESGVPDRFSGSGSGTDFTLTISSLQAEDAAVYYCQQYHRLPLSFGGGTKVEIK

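Phage display of a naive human antibody library on the peptide gave the parent. The library (AAYL49) carries one to three amino acid substitutions per variant, with no insertions or deletions. The assay is AlphaSeq: two haploid yeast populations carry antibody and antigen on their surface. The frequency of each diploid, read from paired DNA barcodes, reflects how well the two displayed proteins bind. The ratio of observed to expected reads was calibrated, replicate by replicate, on BCL2-family standards whose Kd was known from biolayer interferometry. The assay was run in three technical replicates.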

Variants are written as CDR1, CDR2 and CDR3 of the heavy chain (limits as in the source). Parent: GFTLNSYGIS, VIYSDGRRTFYGDSVK, GRAAGTFDS.
Values are log10 of the apparent Kd in nM; lower means stronger binding.
Replicates are averaged; those with no signal do not enter the mean.
"not detected" marks a missing value. The strain was present, yet no cells mated with the target were sequenced in any replicate, which points to weak or no binding.
Empty control strains, which show no peptide, gave a signal in 15% of pairings with library AAYL49; the median was 4.06 and 95% of these signals were weaker than 2.83. No background was subtracted. The control count says in how many pairings with the empty strains this scFv gave a signal.

CDR-H1 | CDR-H2 | CDR-H3 | mean, log10 nM | seen in | empty controls
PFTLNSYGIS | VIYSDGRRTFYGDSVK | GRAAGTFDW | 2.28 | 3 of 3 | 0 of 9
GFTLNWYGIS | VIYSDGCRTDYGDSVK | GRAAGTFDS | 3.93 | 2 of 3 | 3 of 9
GFYLNSYGIS | VIHSDGRRTFYGDSVK | GRQAGTFDS | not detected | 0 of 3 | 0 of 9
GFTLNSYGSS | VIYSDGRRWFYGDQVK | GRAAGTFDS | 5.00 | 2 of 3 | 2 of 9
GFTLNSYGIS | VIYSDGRKTFYGDSVK | GRAEGEFDS | not detected | 0 of 3 | 0 of 9
GFTLGSYGIS | VIYSDGRYTFYGDSVK | GRTAGTFDS | 2.97 | 1 of 3 | 2 of 9
GFTLNSYGIS | VIYSDGRRTFYGDSKK | GRAAGSCDS | not detected | 0 of 3 | 1 of 9
GFTLNSYGIS | VIYSDGRRFFVGDSVK | GRAAGQFDS | not detected | 0 of 3 | 0 of 9
GFTLNSYGVS | VIYSDGRRTFYGDSVK | GRAAGYMDS | 5.17 | 1 of 3 | 1 of 9
GFTLDSYGIS | VIYSDGRRTPYGDSVK | GREAGTFDS | 4.70 | 3 of 3 | 4 of 9
GFRLNSPGIS | VIYSDGRRTFYGDSVD | GRAAGTFDS | 2.42 | 3 of 3 | 0 of 9
GFTLNSYGIS | VIYSDGRDTFYGHSEK | GRAAGTFDS | not detected | 0 of 3 | 3 of 9
GFTLNSYPIS | VIYSDGRRLFYGDSVK | GRAAGTRDS | 4.23 | 3 of 3 | 3 of 9
GFCLNSYGIS | VIYSDGRHTFYGDSVK | GRAWGTFDS | not detected | 0 of 3 | 0 of 9
GFWLNSYGIS | VIYSDGRRTFYGFSVK | GRAAGTFYS | not detected | 0 of 3 | 1 of 9
GITLNSYGIS | VIYSDGRYTFYGDSLK | GRAAGTFDS | 3.83 | 2 of 3 | 2 of 9
GFELNSYGIS | VIYSNGRRTFYGDSVK | GRAAGTFTS | not detected | 0 of 3 | 0 of 9
GFTLNSYGIR | VIYSDGRRTFYGKSVK | GRAAGTFDS | not detected | 0 of 3 | 2 of 9
GFTLNHYGIS | VIYSDGRRTWYGDSEK | GRAAGTFDS | not detected | 0 of 3 | 0 of 9
GFTLNSYGIY | VIYMDGRRTFYGMSVK | GRAAGTFDS | not detected | 0 of 3 | 1 of 9
GFTLNSYGIS | VIYSDGDRTWYGDSVK | GRAAGTFDS | 1.91 | 3 of 3 | 5 of 9
GFTLNSYGIS | VIYSDERRTFYGDSVS | GRAAGRFDS | not detected | 0 of 3 | 0 of 9
GFTLNKYGIS | VIYSDGRRTFYGDSVK | GRAAGTFIW | not detected | 0 of 3 | 1 of 9
GFTLNSYGIS | VIYSDGRRLWYGDSVK | GRAWGTFDS | not detected | 0 of 3 | 0 of 9
GFTLNMYGIS | VIYSDGRRTRYGDSVK | GRAAGRFDS | 3.81 | 2 of 3 | 2 of 9
GFTLNRYGNS | VIYSDGRMTFYGDSVK | GRAAGTFDS | not detected | 0 of 3 | 0 of 9
GFTLNGYGID | VIYSDWRRTFYGDSVK | GRAAGTFDS | not detected | 0 of 3 | 3 of 9
GFTANSYGIS | VIYSDGRRTFYMDSVK | GRAAGHFDS | 4.07 | 1 of 3 | 2 of 9
GFTLNSYGIS | VPYSDGRRTFYGDSEK | GQAAGTFDS | not detected | 0 of 3 | 1 of 9
GFTLNSYGIS | VIYSDGARTFYGDSVK | ARAAGTFDS | 3.14 | 1 of 3 | 0 of 9
GFTLNSYPIS | VIYSDGRLTFYGDSWK | GRAAGTFDS | 3.21 | 1 of 3 | 1 of 9
GFTLNSSGIS | VIYSDWRRTFYGDSVK | GRAAGTFDY | not detected | 0 of 3 | 0 of 9
GFTLNSYGIS | VIYSDGRHNFYGDSVK | GRAAGTFDL | 3.36 | 2 of 3 | 1 of 9
GFTLNSYGIS | VSYADGRRTFYGDSVK | GRAACTFDS | not detected | 0 of 3 | 1 of 9
GFTLNSYGIS | VGYSDGRRTFYGDSTK | WRAAGTFDS | not detected | 0 of 3 | 0 of 9
YFTLNSYGTS | VIYSDGRRTFYGDSSK | GRAAGTFDS | 5.23 | 3 of 3 | 0 of 9
GFTLNSYGIS | VIQSDGRRTFYGDSVK | GRAAGTFDR | not detected | 0 of 3 | 0 of 9
GFTLNSYGIA | VIYSDGRRTFYQDSVK | GRAAGTFGS | 3.74 | 2 of 3 | 5 of 9
GFTLNSYGIS | VNYSDGRRTFYGDYVK | GRAAGTFLS | not detected | 0 of 3 | 1 of 9
GFTHNSYGIS | AIDSDGRRTFYGDSVK | GRAAGTFDS | 4.50 | 2 of 3 | 0 of 9
GCTLNVYGIS | VIYSDGRRTFYGDQVK | GRAAGTFDS | not detected | 0 of 3 | 0 of 9
GFTLNSYGIS | VIYSDGRRTFYGDNVK | LRAVGTFDS | 4.05 | 2 of 3 | 3 of 9
RFTLNSYGIS | VIYSDGSRTFYGDSVE | GRAAGTFDS | 1.89 | 3 of 3 | 4 of 9
GFTLNSYGIS | VLYSDGRRMFYGDSVK | GRAAGTFDL | 1.76 | 3 of 3 | 0 of 9
GFTLASYGIS | VIYSDGRRTFYGDDVK | MRAAGTFDS | not detected | 0 of 3 | 0 of 9
GFTLNSYQIS | VIYSDGRRTFYGDSVK | RRAAGTFDS | not detected | 0 of 3 | 0 of 9
GFTLNSYGIS | VIYSDGRRTFYGDSVK | GRAAGGFRS | 0.45 | 3 of 3 | 2 of 9
GFTLNSYGIS | VIYQDGRRTFYGDGVK | GRAAGTFSS | 4.22 | 1 of 3 | 1 of 9
GFTLNSHGIS | VIYSDGRRTFHADSVK | GRAAGTFDS | 4.01 | 1 of 3 | 0 of 9
GFTRNIYGIS | VIYSDGRSTFYGDSVK | GRAAGTFDS | not detected | 0 of 3 | 0 of 9
GFTLNSYGIS | VIYSDGRRTFYGDSVK | GRAAGLTDS | not detected | 0 of 3 | 0 of 9
GFQLNSYGIS | VIYCDGRRTFYGDSVK | GRAAGTFDP | not detected | 0 of 3 | 0 of 9
GFTLNSYGIS | VIYSDGRRQFYGDSVK | MRAAGTFDS | not detected | 0 of 3 | 0 of 9
GFTLNSYGSS | VIYSDGRRTFYGDFVK | GRAAMTFDS | 5.26 | 1 of 3 | 3 of 9
GFTLNSYGCS | VIYGDIRRTFYGDSVK | GRAAGTFDS | not detected | 0 of 3 | 1 of 9
GFTLNSYGIS | VIPSDGIRTFYLDSVK | GRAAGTFDS | 3.74 | 1 of 3 | 2 of 9
GFTLNNYGIS | VIYSDGRRTQYGDSVK | GRAAGTFDS | not detected | 0 of 3 | 1 of 9
GFTLNSYGIS | PIYSDGHRTFYGDSVK | GRAAGTFDS | not detected | 0 of 3 | 0 of 9
GFTLNSNGIS | VIYSDGRRTFYGDSQK | GRDAGTFDS | not detected | 0 of 3 | 0 of 9
GFTLASYGSS | VIYSDGRRTFYRDSVK | GRAAGTFDS | 3.11 | 1 of 3 | 1 of 9
GFTLNSYGIP | VIYSDGRRTFYGESVK | GRIAGTFDS | not detected | 0 of 3 | 0 of 9
GFTLNVYYIS | VIYNDGRRTFYGDSVK | GRAAGTFDS | not detected | 0 of 3 | 0 of 9
GFTLNPYGIS | NIYSDGRRTFYLDSVK | GRAAGTFDS | 3.03 | 1 of 3 | 0 of 9
GFTLNSYGIS | VINSDLRRTFYGDSVK | TRAAGTFDS | not detected | 0 of 3 | 0 of 9
GFTLFSYPIS | VIYSDGRRTFYGDSVK | LRAAGTFDS | 3.67 | 1 of 3 | 3 of 9
GFTLNSYWIS | VIYSDGRRTFYGHSVK | GRAAGTFDD | not detected | 0 of 3 | 0 of 9
LFTLNSYGIS | VIYSDGRRTFYGDMVK | GRAAGTRDS | not detected | 0 of 3 | 0 of 9
GFTLNSYGIS | VIYSDGRRTFYGDSVI | ARAAYTFDS | not detected | 0 of 3 | 0 of 9
GFTLNSYGIS | VIYSDGWRSFYGDSEK | GRAAGTFDS | not detected | 0 of 3 | 1 of 9
GFTLNEYGIS | VIYSDGRRTFYGDSVK | GRHAGTFVS | 0.08 | 3 of 3 | 2 of 9
GFTKNSYGIS | VIYSDGRRTFYGDHVK | GRAAGTFDW | not detected | 0 of 3 | 0 of 9
GFTLNSYGIS | VIYSDGRRTFYGDSVK | GRASGTFRS | 1.88 | 3 of 3 | 1 of 9
GETLNSYGIS | VIYSDGFRTFPGDSVK | GRAAGTFDS | not detected | 0 of 3 | 1 of 9
GFTENSYGIS | VIYSDGRRNFYGDSVK | GRTAGTFDS | not detected | 0 of 3 | 0 of 9
WFTLNSYGIS | VIYSDGRRTLYGASVK | GRAAGTFDS | 4.34 | 2 of 3 | 2 of 9
GFTLNSYGIS | VIYSDERDTFYSDSVK | GRAAGTFDS | not detected | 0 of 3 | 0 of 9

Parent in this assay: reference entry 0.65, copy in this library 4.11 (one replicate of three).